# Ab-14 light chain CDR variants: yeast mating affinities

The measurements come from Li et al. 2023 (doi:10.1038/s41467-023-39022-2) through the FLAb antibody collection.

The target is the same throughout: PDVDLGDISGINAS, from the HR2 region of SARS-CoV-2 spike.

The variants keep the heavy chain, the linker and the frameworks of Ab-14 (scFv order VH, a (GGGGS)3 linker, VL).
VH: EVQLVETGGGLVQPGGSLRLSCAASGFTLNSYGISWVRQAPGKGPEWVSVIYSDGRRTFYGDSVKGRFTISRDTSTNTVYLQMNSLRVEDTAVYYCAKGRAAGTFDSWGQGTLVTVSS
VL: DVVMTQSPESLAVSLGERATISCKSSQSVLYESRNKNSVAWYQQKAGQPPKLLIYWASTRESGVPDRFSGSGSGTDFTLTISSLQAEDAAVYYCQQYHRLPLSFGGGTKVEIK

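The starting antibody came from a phage panning campaign against this peptide. These sequences belong to a second round, designed from the earlier measurements on random variants of the parent. Their group label is 14L_GP_Gen (GP: Gaussian process model; Gen: genetic algorithm; a sequence that several methods proposed may carry one label only). The assay is AlphaSeq: two haploid yeast populations carry antibody and antigen on their surface. The frequency of each diploid, read from paired DNA barcodes, reflects how well the two displayed proteins bind. Scores were corrected for input abundance and mapped to Kd with protein pairs of known affinity run in the same pool. Mating was done six times.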

The parent's light chain CDRs are KSSQSVLYESRNKNSVA, WASTRES, QQYHRLPLS; each variant's own CDRs replace them letter for letter. Affinities are written as log10 Kd with Kd in nM; a lower number is a better binder. The range of this assay differs from that of the first round, and the authors advise against merging the two. The authors' rule: three or more of the six replicates give a measured affinity, fewer mean a poor binder. Of ten entries with the parent sequence, four were seen in most replicates (averages 0.34 to 2.37), three in one and three in none, so single entries are noisy. Background: pairings of all light chain designs with three empty control strains gave a value in 4% of cases (median 2.64, 5th percentile 1.59). Values in that range, when seen in few replicates, are hard to tell from nonspecific mating. The control count says in how many pairings with the empty strains this scFv gave a signal, with their mean in brackets.

CDR-L1,CDR-L2,CDR-L3,log10 Kd (nM) by replicate,signal with controls
KMSQSVLMESRNKNSVA,EASTRES,QQYHRLPLS,0.12 / -0.08 / -0.24 / -0.21 / -0.16 / -0.16,1 of 18 (2.48)
KSQQSQLYESRNKNSVA,NASTRES,QQYHRLPLS,0.33 / 0.14 / 0.01 / -0.10 / -0.14 / 0.16,0 of 18
KLSQSVLYEERNKNSVA,NASTREV,QQYHRLPLS,-0.43 / -0.41 / -0.56 / -0.71 / -0.49 / -0.51,1 of 18 (3.04)
KLMQSVLYESRNKNSVA,NASTRCS,QQYHRLPLS,0.45 / 0.37 / 0.37 / 0.19 / 0.09 / 0.38,2 of 18 (1.87)
KLSESELYESRNKNSVA,EASTRES,QQYHRLPLS,-0.03 / -0.14 / -0.19 / -0.35 / -0.27 / -0.05,2 of 18 (3.22)
KLSQSDLYESRNKNSVA,GASQRES,QQYHRLPLS,-0.34 / -0.24 / -0.48 / -0.64 / -0.77 / -0.33,0 of 18
KVQQSVLYESRNKNSVA,NASTRCS,QQYHRLPLS,-0.19 / -0.30 / -0.21 / -0.20 / -0.20 / -0.01,0 of 18
KLQQSQLYESRNKNSVA,NASKRES,QQYHRLPLS,0.81 / 0.22 / 0.69 / 0.36 / 0.42 / 0.58,1 of 18 (2.11)
KVQQSMLYESRNKNSVA,NASQRES,QQYHRLPLS,-0.21 / -0.31 / -0.35 / -0.21 / -0.30 / -0.22,0 of 18
KMSQSVLMESRNSNSVA,DASTRES,QQYHRLPLS,0.63 / 0.92 / 1.30 / 0.86 / 1.06 / 1.14,1 of 18 (1.39)
KLQQSELYESRNKNSVA,EASERES,QQYHRLPLS,-0.03 / -0.01 / -0.15 / -0.31 / -0.09 / 0.10,1 of 18 (3.23)
FLSQSDLYESRNKNSVA,NASTRES,QQYHRLPLS,-0.22 / -0.38 / -0.63 / -0.19 / -0.64 / -0.19,1 of 18 (2.64)
KLSQSVLYESRNKNSVA,NASTREW,QQYHRLPLS,0.89 / 0.15 / 0.16 / 0.18 / 0.14 / 0.48,0 of 18
KLSQSGLYESRNKNSVA,NASTRMS,QQYHRLPLS,-0.39 / -0.51 / -0.58 / -0.32 / -0.60 / -0.31,0 of 18
KLSMSNLYESRNKNSVA,NASTRES,QQYHRLPLS,0.10 / 0.18 / -0.13 / -0.18 / -0.14 / 0.22,0 of 18
KVSQSVLYESRNFNSVA,NASTRES,QQYHRLPLS,0.97 / 1.02 / 0.79 / 1.20 / 0.81 / 0.98,3 of 18 (2.98)
KLSQSVLYESRNQNSVA,NASTREV,QQYHRLPLS,-0.32 / 0.21 / -0.84 / -0.55 / 0.00 / -0.44,0 of 18
KLPQSVLYESRNKNNVA,EASTRES,QQYHRLPLS,-0.02 / -0.30 / -0.28 / -0.39 / -0.55 / -0.18,2 of 18 (2.65)
KMQQSWLYESRNKNSVA,NASTRES,QQYHRLPLS,-0.34 / -0.19 / -0.32 / -0.50 / -0.66 / -0.21,1 of 18 (3.08)
KLSQSHLYESRNKNSVA,NASTRES,QAYHRLPLS,0.62 / 0.35 / 0.34 / 0.25 / 0.33 / 0.48,1 of 18 (2.14)
KVSQSMLYESRNKNSVA,NASYRES,QQYHRLPLS,-0.20 / -0.29 / -0.54 / -0.68 / -0.44 / -0.30,2 of 18 (3.86)
KVSQSFLMESRNKNSVA,DASTRES,QQYHRLPLS,-0.43 / -0.54 / -0.65 / -0.58 / -0.55 / -0.39,0 of 18
KLSQSVLYEMRMKNSVA,NASTRES,QQYHRLPLS,0.87 / 0.69 / 0.72 / 0.62 / 0.57 / 0.73,1 of 18 (3.43)
KVQQSFLYESRNKNSVA,NASTRES,QQYHRLPLS,0.27 / 0.06 / 0.26 / -0.06 / 0.43 / 0.29,4 of 18 (2.10)
KVSQSVLYESRNKNSVA,NASTRES,QQYHRLPLT,0.07 / -0.09 / 0.17 / -0.12 / 0.10 / 0.16,2 of 18 (2.41)
KLQQSVLYESRNKNSVA,NASTRRS,QQYHRLPLS,0.28 / 0.23 / 0.12 / 0.23 / 0.44 / 0.45,2 of 18 (4.13)
KLQQSVPYESRNKNSVA,SASTRSS,QQYHRLPLS,0.27 / 0.37 / 0.27 / 0.22 / 0.25 / 0.60,0 of 18
KIMQSELYESRNKNSVA,NASTRMS,QQYHRLPLS,-0.05 / -0.09 / 0.06 / -0.20 / 0.04 / -0.01,0 of 18
KSSQSFDYESRNKNSVA,DASTRES,QQYHRLPLS,0.36 / -0.11 / 0.00 / -0.15 / 0.05 / 0.12,0 of 18
KVSQSDLYESRNKNSVA,EASTREQ,QQYHRLPLS,-0.20 / -0.29 / -0.24 / -0.35 / -0.12 / -0.25,1 of 18 (2.63)
KFEQSHLYESRNKNSVA,NASQRES,QQYHRLPLS,-0.12 / 0.03 / 0.21 / 0.24 / -0.08 / 0.16,0 of 18
KLSQSVLYESRNKNSVA,EASTRLQ,QQYHRLPLS,0.25 / 0.22 / 0.62 / 0.11 / 0.40 / 0.73,0 of 18
KSSQSWPYESRNKNSVA,NASTRES,QQYHRLPLS,0.28 / 0.12 / 0.00 / -0.05 / 0.24 / 0.37,0 of 18
KLSQSVLYEQRNKNSVA,SASTRES,QQYHRLPLS,0.10 / -0.15 / -0.29 / -0.30 / -0.07 / 0.06,2 of 18 (2.70)
KLSQSHLYESRMKNAVA,NASTRES,QQYHRLPLS,0.17 / -0.53 / -0.51 / -0.17 / -0.62 / -0.09,3 of 18 (3.13)
KLWQSVLYESRNKNSVA,NASTRLS,QQYHRLPLS,0.34 / 0.11 / 0.32 / 0.21 / 0.33 / 0.13,0 of 18
KLMQSQLYESRNKNSVA,NASTRLS,QQYHRLPLS,0.80 / 0.60 / 0.40 / 0.92 / 0.86 / 0.42,0 of 18
KLSGSDLYESRNKNSVA,EASTRES,QQYHRLPLS,0.08 / 0.27 / -0.17 / -0.04 / -0.13 / -0.33,0 of 18
KVSQQNLYESRNKNSVA,NASTRES,QQYHRLPLS,0.13 / 0.17 / 0.12 / 0.10 / 0.04 / 0.11,2 of 18 (2.67)
KLYQSMLYESRNKNSVA,NASTRES,QQYHRLPLS,2.49 / 0.82 / 1.00 / 3.87 / 1.11 / 1.61,0 of 18
KLSQSDLYESRNKNSVA,NASTREH,QQYHRLPLS,0.00 / -0.16 / -0.01 / -0.09 / -0.05 / 0.05,0 of 18

Excerpt, the first 4 entries:

CDR-L1,CDR-L2,CDR-L3,log10 Kd (nM) by replicate,signal with controls
KMSQSVLMESRNKNSVA,EASTRES,QQYHRLPLS,0.12 / -0.08 / -0.24 / -0.21 / -0.16 / -0.16,1 of 18 (2.48)
KSQQSQLYESRNKNSVA,NASTRES,QQYHRLPLS,0.33 / 0.14 / 0.01 / -0.10 / -0.14 / 0.16,0 of 18
KLSQSVLYEERNKNSVA,NASTREV,QQYHRLPLS,-0.43 / -0.41 / -0.56 / -0.71 / -0.49 / -0.51,1 of 18 (3.04)
KLMQSVLYESRNKNSVA,NASTRCS,QQYHRLPLS,0.45 / 0.37 / 0.37 / 0.19 / 0.09 / 0.38,2 of 18 (1.87)